Assay: Viscosity of test solutions
Format: physicochemical
Details: purified water, 2.00%
Protocol: 1:1 mol/mol stoichiometry complexes were prepared for the experiment. Nicotinic acid/alpha-CD complex was prepared by dissolving 11.22 g nicotinic acid and 98.63 g alpha-CD (89.66 g on dry basis) in 700 ml purified water. Nicotinamide/alpha-CD complex was prepared by dissolving 5.57 g nicotinamide and 49.3 g alpha-CD (44.4 g on dry basis) in 350 ml purified water and L-arginine/alpha-CD complex was prepared by dissolving 15.18 g L-arginine and 94.26 g alpha-CD (85.69 g on dry basis) in 700 ml purified water. Further, for all the three complexes, the liquid was frozen in dry ice bath and lyophilized. The dry lyophilizate was ground and sieved.
Clarity, pH, conductivity, density, viscosity, turbidity, surface tension and osmolality were determined in solutions prepared with purified water. The concentration noted for the complex solutions are indicating the actual alpha cyclodextrin content. Alpha & gamma cyclodextrin mix is a 50-50 weight % mixture of the two constituents and the percentage indicates the total cyclodextrin content.

For `OC[C@H]1O[C@@H]2O[C@H]3[C@H](O)[C@@H](O)[C@@H](O[C@H]4[C@H](O)[C@@H](O)[C@@H](O[C@H]5[C@H](O)[C@@H](O)[C@@H](O[C@H]6[C@H](O)[C@@H](O)[C@@H](O[C@H]7[C@H](O)[C@@H](O)[C@@H](O[C@H]1[C@H](O)[C@H]2O)O[C@@H]7CO)O[C@@H]6CO)O[C@@H]5CO)O[C@@H]4CO)O[C@@H]3CO` [Alpha Cyclodextrin, α-cyclodextrin], the “Viscosity (25 C.)” value was 1.01 cP.

Reference: patent publication US20250332096A1, “BEVERAGE FORMULATION AND METHOD OF PROMOTING CELLULAR HYDRATION BY ENHANCING INTRACELLULAR PERMEATION” (Eastpond Laboratories Limited, priority 2024, published 2025)
